Data as given in ChEMBL document CHEMBL4834477, “Synthesis and biological evaluation of novel purinyl quinazolinone derivatives as PI3Kδ-specific inhibitors for the treatment of hematologic malignancies” (Bioorg Med Chem, 2021).

Species on record: Homo sapiens
Test: Selectivity ratio of IC50 for recombinant human full length His-tagged p110gamma expressed in baculovirus expression system to IC50 for recombinant human full length His-tagged p110delta/p85alpha expressed in baculovirus expression system

Ratio IC50: 49
Compound: O=c1c2c(F)cccc2nc([C@@H](Nc2ncnc3nc[nH]c23)C2CC2)n1-c1ccccc1
